From article PMC9698057, “Insights into Antimalarial Activity of N-Phenyl-Substituted Cinnamanilides” (Molecules, 2022)

Test: Lipophilicity determination by RP-HPLC (log of capacity factor k)
Format: physicochemical

Molecule `O=C(/C=C/c1ccccc1)Nc1ccccc1F` [Compound 4] has a log k of 0.1330.
